# High-throughput results (PubChem)
# Shown are actives, neighbours in structure and some others; about 1.7% of the full set was active somewhere.
# PTHR1 ag: agonists of human PTHR1 parathyroid hormone receptor; HEK293 GP2 PTHR1 cells, GloSensor cAMP luminescence, 1 h; Potency, µM (series often up to 115 µM), without a hit: at the top dose activation, most hits filed as activators; 410,000 tested, 0.075% active; Q03431; also: potency is read from the fitted curve at half-maximal effect; nearly all actives have a fitted effect of over 55% in size
#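 HEK-293-derived GP2 cells expressing PTHR1 and a GloSensor cAMP reporter, 3,000/well, plated overnight, given luciferin plus IBMX (each 0.5 mM as added) for 1 h at 37 °C, then compound for 1 h at 37 °C. Luminescence was read after 15 min at room temperature.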
# GLP1R cytotox: cytotoxicity in counter-screen for GLP-1R inverse agonists; 410,000 tested, 0.13% active; Potency, µM (highest dose often 38.3 µM), for inactives: at the highest dose activity change, negative = inhibition, usual class: inhibitors; HEK293 cAMP-luciferase reporter cells, luminescence, 24 h;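 also: loss of luciferase light is scored as toxicity; potency is read from the fitted curve at half-maximal effect; % is scaled to controls: 0 for no effect and ±100 for the full control effect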
#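 A 23 nL compound transfer followed 12 hours of cell culture at 37 deg C; exposure then lasted 24 hr. Luciferase assay detection reagent was dispensed and plates read for luminescence after a 12 min room-temperature wait.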
# miR-21 reporter: raises the signal of a miR-21 reporter; HeLa miR-21 FLuc reporter, luciferase, 48 h; Potency, µM (top dose mostly 38.3 µM), for inactives: at the highest dose reporter change, positive = more light; AID 2288; 340,000 tested, under 10 active; active = well fitted rising curve with a large enough effect; inconclusive = small, poorly fitted or top-dose-only effect; inactive = no such curve, though single readings can be large or run the other way;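 note: % of control where 0% means no effect; miR-21 action dims this reporter so a rising signal means less miR-21 action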
#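 Luminescence from a firefly luciferase reporter carrying a miR-21 binding site downstream, stably expressed under a CMV promoter in HeLa cells that make miR-21 endogenously, reports miRNA modulation after 48 h compound exposure up to approximately 40uM final.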
# GLP-1R inv ag: inverse agonists of human GLP-1 receptor; P43220; HEK293 GLP-1R CRE-luciferase, luminescence, 24 h; GLP-1R form is constitutively active; Potency, µM (top dose mostly 38.3 µM), without a hit: top-dose activity change, negative = inhibition, usual class: inhibitors; 410,000 tested, 1.6% active; AID 624417; also: potency is read from the fitted curve at half-maximal effect; % is scaled to controls: 0 for no effect and ±100 for the full control effect; nearly all actives have a fitted effect of over 55% in size
#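 Assay principle: reduced luminescence from a cAMP-responsive reporter in HEK293 cells co-expressing a constitutively active GLP-1R. Conditions: 24 hr compound incubation, 37 deg C, 5% CO2.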
# Pin1 inhibitor: human Pin1 inhibition; Q13526; Pin1 FP peptide displacement, HiFluor488, 10 min; Potency, µM (series often up to 115 µM), without a hit: at the highest dose activity, negative = inhibition, most hits filed as inhibitors; 390,000 tested, 0.009% active; active = well fitted inhibition curve with a large enough effect in the polarisation, with a control signal flat, not every such curve was filed as active; inconclusive = small, poorly fitted or top-dose-only effect, or effect the other way, or a change in a side signal; inactive = no such curve, though single readings can be large or run the other way; the % refers to the polarisation; also: potency is read from the fitted curve at half-maximal effect; % is scaled to controls: 0 for no effect and ±100 for the full control effect
# GLP1R ag: agonists of human GLP-1 receptor; P43220; 380,000 tested, 0.007% active; AID 624172; HEK293 GLP-1R CRE-luciferase, luminescence, 4-6 h; cells express a hypersensitive GLP-1R form; Potency, µM (series often up to 45.6 µM), for inactives: at the highest dose activation, most hits filed as activators; also: potency is read from the fitted curve at half-maximal effect; % of control where 0% means no effect
# The depositor's hits bear a star; i = inactive; ? = inconclusive; · = no result given; [ ] = remark or other dose. Unless noted, calls follow the shape of the dose curve; as a rule, active = well fitted curve in the direction sought with a large enough effect; inconclusive = small, poorly fitted or top-dose-only effect, or another doubt; inactive = no such curve, though single readings can be large; an effect the other way counts as inactive or inconclusive.
nr | Structure | Pin1 inhibitor | GLP-1R inv ag | PTHR1 ag
1 | CCCCN(C)CCNC(=O)c1ccc(Cn2c(=O)[nH]c3cc(OC)c(OC)cc3c2=O)cc1 | 1% | 7% | -2%
2 | CCOC(=O)c1cnn(-c2ccc(C(=O)Nc3cc(OC)c(OC)c(OC)c3)cc2)c1N | 1% | 17% | 1%
3 | CCN1C(=O)C(CC(=O)Nc2ccc(F)cc2)N(Cc2ccco2)C1=S (stereo not given) | 1% | 6%[7.66 µM] | -1%
4 | C=CCN1C(=O)C(CC(=O)Nc2ccc(OCCC)cc2)N(CCCN2CCN(Cc3ccccc3)CC2)C1=S (stereo not given) | 5% | 2.5µM* | i
5 | CCCCCCOc1ccc(NC(=O)CC2C(=O)N(CC)C(=S)N2Cc2ccco2)cc1 (stereo not given) | 32% | 7.1µM* | -21%
6 | CCCOc1ccc(NC(=O)CC2C(=O)N(CC)C(=S)N2Cc2cccs2)cc1 (stereo not given) | 5% | 10µM* | -15%
7 | OC(Cc1ccccc1Br)c1ncc(-c2cccc(C(F)(F)F)c2)[nH]1 (stereo not given) | · | 10µM* | -47%
8 | CC(C)S(=O)(=O)c1oc(-c2ccc(F)cc2)nc1S(=O)(=O)c1ccccc1 | · | ? | -94%

nr | GLP1R cytotox | GLP1R ag | miR-21 reporter
1 | 5% | 0% | 13%
2 | 1% | · | 20%
3 | -6%[7.66 µM] | 0% | 3%
4 | ? | 0% | ?
5 | ? | -5% | ?
6 | -28% | 0% | 13%
7 | -29% | 1% | ·
8 | ? | · | ?

# (next part)
nr | Structure | Pin1 inhibitor | GLP-1R inv ag | PTHR1 ag
9 | CC(C)S(=O)(=O)c1oc(-c2cccs2)nc1S(=O)(=O)c1ccc(F)cc1 | 3% | ? | -5%
10 | O=C(c1ccccc1Br)N(Cc1ccccc1)c1ccccc1 | 0% | 8.9µM* | -19%
11 | COc1ccc(N/N=C(\C#N)C(=N)SCc2ccccc2)cc1 | ? | 0.28µM* | -37%
12 | COc1ccc(-n2nc3c(N4CCC(C(=O)NCC(C)c5ccccc5)CC4)nnc(C)c3c2C)cc1 (stereo not given) | ? | 10µM* | i
13 | COc1ccc(C2c3c(ncn(CCc4ccccc4)c3=N)Oc3ccc4ccccc4c32)cc1OC (stereo not given) | 3% | · | ·
14 | C=CCOc1ccc(C=CC(=O)c2c(O)c(OC)c(OC)c(OC)c2OC)cc1 | -11% | 7.9µM* | -22%
15 | C=CCOc1ccc(/C=C/C(=O)OCC(=O)NCc2cccc(OC)c2)cc1 | 1% | -20% | i
16 | NC(Cc1ccccc1)c1csc(Nc2ccc(C(=O)c3ccccc3)cc2)n1 (stereo not given) | · | 10µM* | -2%
17 | NC(Cc1ccc(Cl)cc1)c1csc(Nc2ccc(C(=O)c3ccccc3)cc2)n1 (stereo not given) | · | ? | i

nr | GLP1R cytotox | GLP1R ag | miR-21 reporter
9 | 10µM* | · | ?
10 | 3% | 15% | 21%
11 | ? | 13% | 24%
12 | ? | 21% | 11%
13 | · | · | ·
14 | -17% | -9% | ·
15 | -3% | 1% | ·
16 | ? | -3% | ·
17 | 2% | -9% | ·

# Part of the list above, field by field.
[4] C=CCN1C(=O)C(CC(=O)Nc2ccc(OCCC)cc2)N(CCCN2CCN(Cc3ccccc3)CC2)C1=S (stereo not given)
  Pin1 inhibitor: 5%
  GLP-1R inv ag: 2.5µM*
  PTHR1 ag: i
  GLP1R cytotox: ?
  GLP1R ag: 0%
  miR-21 reporter: ?

[10] O=C(c1ccccc1Br)N(Cc1ccccc1)c1ccccc1
  Pin1 inhibitor: 0%
  GLP-1R inv ag: 8.9µM*
  PTHR1 ag: -19%
  GLP1R cytotox: 3%
  GLP1R ag: 15%
  miR-21 reporter: 21%
